Protein sequences, listed by entry. Tags and fused reporters are not part of them.
UniProt Q05397, whole entry: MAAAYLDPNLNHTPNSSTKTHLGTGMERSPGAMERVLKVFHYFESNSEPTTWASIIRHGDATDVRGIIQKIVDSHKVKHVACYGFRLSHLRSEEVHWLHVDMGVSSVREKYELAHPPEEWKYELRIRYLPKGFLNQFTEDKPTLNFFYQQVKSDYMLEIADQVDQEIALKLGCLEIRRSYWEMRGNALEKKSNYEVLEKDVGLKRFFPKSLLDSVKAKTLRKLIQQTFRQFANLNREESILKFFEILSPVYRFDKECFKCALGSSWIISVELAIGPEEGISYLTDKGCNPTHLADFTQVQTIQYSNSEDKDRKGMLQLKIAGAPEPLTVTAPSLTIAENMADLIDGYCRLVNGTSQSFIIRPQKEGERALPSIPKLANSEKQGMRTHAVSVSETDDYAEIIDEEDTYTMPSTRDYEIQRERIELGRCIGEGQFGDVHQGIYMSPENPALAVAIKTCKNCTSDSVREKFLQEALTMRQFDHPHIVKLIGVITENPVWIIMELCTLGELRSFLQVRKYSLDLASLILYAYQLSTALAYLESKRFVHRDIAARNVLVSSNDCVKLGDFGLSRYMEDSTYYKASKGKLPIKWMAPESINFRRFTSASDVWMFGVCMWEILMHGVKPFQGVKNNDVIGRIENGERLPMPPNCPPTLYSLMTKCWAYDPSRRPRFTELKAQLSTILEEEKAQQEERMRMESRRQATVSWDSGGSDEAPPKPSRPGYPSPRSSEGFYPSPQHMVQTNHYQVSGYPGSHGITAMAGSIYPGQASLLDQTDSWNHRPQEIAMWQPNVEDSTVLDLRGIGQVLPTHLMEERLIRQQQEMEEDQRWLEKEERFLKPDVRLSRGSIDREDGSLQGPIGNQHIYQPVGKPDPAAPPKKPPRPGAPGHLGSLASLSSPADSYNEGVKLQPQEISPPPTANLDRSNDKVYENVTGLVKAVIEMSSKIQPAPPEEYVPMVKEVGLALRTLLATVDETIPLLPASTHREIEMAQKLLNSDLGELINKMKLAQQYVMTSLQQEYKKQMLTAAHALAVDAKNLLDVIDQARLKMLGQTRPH

In US8466155B2, “Pyrimidines” (Boehringer Ingelheim International GmbH, priority 2009, dated 2013):

Target: PTK2 (Homo sapiens, UniProt Q05397)
Experiment: PTK2 enzyme test, Assay 1 (DELFIA, PT60 antibody)
Assay type: biochemical
Conditions: read-out: PTK2 1 h IC50, 1 h pre-incubation, 1 h kinase reaction, values without *

COc1cc(C(=O)NC2CCN(C)CC2)c(Cl)cc1Nc1ncc(C(F)(F)F)c(O[C@@H]2CCC[C@H]2NS(C)(=O)=O)n1
IC50: 1 nM
